Here are results for 4 compounds from PubChem BioAssay AID602417 (Sanford-Burnham Center for Chemical Genomics, 2012).

Usually inhibition stands for the relative decrease from the control value, in per cent.

This is a selection; strong and weak results do not stand in their true shares. Activity calls are given as the source filed them.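 How the source made its calls: active means at 20 µM dose, 40% or more inhibition averaged across four replicates; inactive means the rest.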

The assay is described as follows: inhibition of PEG-3 promoter luciferase signal – cell-based, HeLa, luciferase reporter, single concentration, confirmation (AID 602417). The conditions noted are these: HeLa PEG-Prom luciferase reporter, luminescence, overnight; at 20 µM; stronger effect = higher value.
With `COc1cccc(C(c2nnnn2C2CCCCC2)N2CCC(n3c(=O)[nH]c4ccccc43)CC2)c1OC` (centres undefined), the inhibition was inactive: -10.1%.

Regarding `CCCCn1nnnc1C(c1cccc2ccccc12)N1CCC(n2c(=O)[nH]c3ccccc32)CC1` (centres undefined), the inhibition was inactive: 24.7%.

As for `O=c1[nH]c2ccccc2n1C1CCN(C(c2cccc3ccccc23)c2nnnn2C2CCCC2)CC1` (centres undefined), the inhibition was active: 47.7%.

For the compound `CCCCn1nnnc1C(c1cccs1)N1CCC(n2c(=O)[nH]c3ccccc32)CC1` (centres undefined), the inhibition is active: 55.2%.
